Results as given in the NIST ThermoML archive (doi:10.1016/j.jct.2015.02.024).
± gives the expanded uncertainty stated by the source.

Assay: activity coefficient (dimensionless); of the first substance listed, at infinite dilution; xn = mol fraction of the nth substance listed
Conditions: 101 kPa, Liquid, Chromatography, x1 = 0

CCCCOCCCC [dibutyl ether] + C[N+]1(CCCO)CCOCC1.O=S(=O)([N-]S(=O)(=O)C(F)(F)F)C(F)(F)F
Conditions | activity coefficient
318.15 K | 56.8 ± 3.9
328.15 K | 53.8 ± 3.7
338.15 K | 50.9 ± 3.5
348.15 K | 48.5 ± 3.3
358.15 K | 46.3 ± 3.2
368.15 K | 44.3 ± 3
